{
  "source": "patent US20090227619A1",
  "about": "“Harmine derivatives, intermediates used in their preparations, preparation processes and use therefo” (priority 2003, published 2009)",
  "system": "Kunming mice",
  "conditions": "single i.p.",
  "note": "Like-named read-outs stand apart in the source and are kept apart here.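 Further: acute toxicity in Kunming mice grouped by sex, one intraperitoneal dose at five graded levels in Tween-80 plus 0.5% CMC-Na, deaths monitored over two weeks.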",
  "data": [
    {"substance": "2,9-dibenzyl-3-ethoxycarbonyl-β-carbolinium bromate [Compound 86]", "values": [
      {"measurement": "Death rate", "setting": "50% male 50% female mice, 40.96 mg/kg", "result": 0},
      {"measurement": "Death rate", "setting": "50% male 50% female mice, 51.2 mg/kg", "result": 25},
      {"measurement": "Death rate", "setting": "50% male 50% female mice, 64 mg/kg", "result": 45},
      {"measurement": "Death rate", "setting": "50% male 50% female mice, 80 mg/kg", "result": 65},
      {"measurement": "Death rate", "setting": "50% male 50% female mice, 100 mg/kg", "result": 95},
      {"measurement": "Death rate", "setting": "female mice, 40.96 mg/kg", "result": 0},
      {"measurement": "Death rate", "setting": "female mice, 51.2 mg/kg", "result": 30},
      {"measurement": "Death rate", "setting": "female mice, 64 mg/kg", "result": 40},
      {"measurement": "Death rate", "setting": "female mice, 80 mg/kg", "result": 70},
      {"measurement": "Death rate", "setting": "female mice, 100 mg/kg", "result": 100},
      {"measurement": "Death rate", "setting": "male mice, 40.96 mg/kg", "result": 0},
      {"measurement": "Death rate", "setting": "male mice, 51.2 mg/kg", "result": 20},
      {"measurement": "Death rate", "setting": "male mice, 64 mg/kg", "result": 50},
      {"measurement": "Death rate", "setting": "male mice, 80 mg/kg", "result": 60},
      {"measurement": "Death rate", "setting": "male mice, 100 mg/kg", "result": 90}
    ]}
  ]
}
